Where two headings read alike, the source gives them in different places.
Assays:
[1] = tested on: Vero cells
[2] = tested on: Huh7 cells; conditions: human

CN(C)C(=O)C(CCN1CCC(O)(c2ccc(Cl)cc2)CC1)(c1ccccc1)c1ccccc1 [Lopera-mide]
Cell viability (%) ([1]; African green monkey, 20 µM): 101.82%

CN(C)C(=O)C(CCN1CCC(O)(c2ccc(Cl)cc2)CC1)(c1ccccc1)c1ccccc1 [Loperamide]
Huh7 cell viability (%) ([2]; 0.37 µM): 96.82%
Huh7 cell viability (%) ([2]; 1.111 µM): 96.17%

O=C(CCCN1CCC2(CC1)C(=O)NCN2c1ccccc1)c1ccc(F)cc1 [Spiperone]
Huh7 cell viability (%) ([2]; 0.37 µM): 97.22%

O=C(CCCN1CCC2(CC1)C(=O)NCN2c1ccccc1)c1ccc(F)cc1 [Spipe-rone]
Cell viability (%) ([1]; 1.25 μM): 101.99%
Cell viability (%) ([1]; 20 μM): 101.53%
